Patent publication US6255089A (dated 2001)

Tested on: 5-HT2A cys→lys mutant receptor
Conditions: mutated 5-HT2A cys→lys receptor; inverse agonism

Row | SMILES | reduction of constitutively activated IP basal activity
1 | Cc1nc2n(c(=O)c1CCN1CCC(c3noc4cc(F)ccc34)CC1)CCCC2 [risperidone] | reduce the constitutively activated IP basal activity
2 | CN(C)CCCN1c2ccccc2Sc2ccc(Cl)cc21 [chlorpromazine] | reduce the constitutively activated IP basal activity
